A word on the pEC50: it is the negative decadic logarithm of the EC50, by convention in mol/L.

Protein sequences, listed by entry. Tags and fused reporters are not part of them. Lines headed by an entry give the natural chain unless they say otherwise; changes in a name come on top.
UniProt Q8TDU9, whole entry R208A: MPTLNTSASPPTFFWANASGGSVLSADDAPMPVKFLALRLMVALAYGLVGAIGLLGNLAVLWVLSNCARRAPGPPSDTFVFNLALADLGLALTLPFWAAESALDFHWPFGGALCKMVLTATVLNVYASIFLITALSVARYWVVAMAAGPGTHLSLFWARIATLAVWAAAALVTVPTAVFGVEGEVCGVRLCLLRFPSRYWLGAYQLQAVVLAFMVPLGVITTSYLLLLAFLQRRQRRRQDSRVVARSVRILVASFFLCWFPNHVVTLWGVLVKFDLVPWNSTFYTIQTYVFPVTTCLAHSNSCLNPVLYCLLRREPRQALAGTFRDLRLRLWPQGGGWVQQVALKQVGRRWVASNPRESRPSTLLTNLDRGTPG
UniProt Q8TDU9, whole entry T121A: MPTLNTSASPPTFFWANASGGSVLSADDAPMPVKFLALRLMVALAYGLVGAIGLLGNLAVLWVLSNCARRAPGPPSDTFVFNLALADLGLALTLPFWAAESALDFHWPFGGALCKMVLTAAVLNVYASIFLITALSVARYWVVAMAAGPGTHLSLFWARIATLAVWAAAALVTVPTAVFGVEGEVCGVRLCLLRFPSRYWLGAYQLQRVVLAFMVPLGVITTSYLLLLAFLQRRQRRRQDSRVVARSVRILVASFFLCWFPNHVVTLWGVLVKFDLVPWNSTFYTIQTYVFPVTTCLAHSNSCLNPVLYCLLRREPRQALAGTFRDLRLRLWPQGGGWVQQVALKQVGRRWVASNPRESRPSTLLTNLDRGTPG
UniProt Q8TDU9, whole entry L118S/V122S: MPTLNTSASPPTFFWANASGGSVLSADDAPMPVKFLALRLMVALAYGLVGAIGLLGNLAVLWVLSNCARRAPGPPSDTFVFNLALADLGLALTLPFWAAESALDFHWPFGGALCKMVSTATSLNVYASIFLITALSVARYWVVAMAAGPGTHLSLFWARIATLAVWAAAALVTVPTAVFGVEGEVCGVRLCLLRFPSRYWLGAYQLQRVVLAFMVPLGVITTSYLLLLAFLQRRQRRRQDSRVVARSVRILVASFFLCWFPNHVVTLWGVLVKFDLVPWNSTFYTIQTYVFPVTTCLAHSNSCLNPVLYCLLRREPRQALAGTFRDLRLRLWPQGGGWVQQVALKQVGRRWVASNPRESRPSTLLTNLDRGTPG
UniProt Q8TDU9, whole entry: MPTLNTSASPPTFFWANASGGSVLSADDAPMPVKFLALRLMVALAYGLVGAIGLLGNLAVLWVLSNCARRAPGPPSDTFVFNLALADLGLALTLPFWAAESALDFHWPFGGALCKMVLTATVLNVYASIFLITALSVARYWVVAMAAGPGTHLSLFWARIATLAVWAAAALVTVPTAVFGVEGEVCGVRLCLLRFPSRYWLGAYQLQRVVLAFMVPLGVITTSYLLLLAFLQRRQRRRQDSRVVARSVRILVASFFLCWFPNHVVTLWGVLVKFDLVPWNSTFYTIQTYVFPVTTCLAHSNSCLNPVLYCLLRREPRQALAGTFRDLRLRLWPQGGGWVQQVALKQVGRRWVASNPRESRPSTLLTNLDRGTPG
UniProt Q8TDU9, whole entry W97A: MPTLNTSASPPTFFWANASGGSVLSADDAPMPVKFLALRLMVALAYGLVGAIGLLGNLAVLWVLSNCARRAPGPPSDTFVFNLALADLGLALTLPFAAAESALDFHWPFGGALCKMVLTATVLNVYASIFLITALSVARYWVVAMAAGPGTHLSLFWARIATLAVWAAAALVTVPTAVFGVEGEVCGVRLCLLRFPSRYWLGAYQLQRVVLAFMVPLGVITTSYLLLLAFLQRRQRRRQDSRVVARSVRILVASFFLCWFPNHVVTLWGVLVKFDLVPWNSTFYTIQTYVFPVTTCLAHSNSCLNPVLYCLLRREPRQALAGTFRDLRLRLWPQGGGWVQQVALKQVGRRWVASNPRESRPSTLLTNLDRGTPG
UniProt Q8TDU9, whole entry F105A: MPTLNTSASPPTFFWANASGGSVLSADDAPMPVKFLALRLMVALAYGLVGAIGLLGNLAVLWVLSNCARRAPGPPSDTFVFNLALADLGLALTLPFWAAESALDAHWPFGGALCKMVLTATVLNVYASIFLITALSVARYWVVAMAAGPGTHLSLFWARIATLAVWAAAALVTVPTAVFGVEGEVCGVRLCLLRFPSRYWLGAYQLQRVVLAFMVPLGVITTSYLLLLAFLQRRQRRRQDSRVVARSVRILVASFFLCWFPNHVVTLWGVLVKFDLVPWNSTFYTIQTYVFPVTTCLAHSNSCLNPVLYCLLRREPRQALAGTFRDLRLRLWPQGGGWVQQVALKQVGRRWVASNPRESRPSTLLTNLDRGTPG
UniProt Q8TDU9, whole entry H299A: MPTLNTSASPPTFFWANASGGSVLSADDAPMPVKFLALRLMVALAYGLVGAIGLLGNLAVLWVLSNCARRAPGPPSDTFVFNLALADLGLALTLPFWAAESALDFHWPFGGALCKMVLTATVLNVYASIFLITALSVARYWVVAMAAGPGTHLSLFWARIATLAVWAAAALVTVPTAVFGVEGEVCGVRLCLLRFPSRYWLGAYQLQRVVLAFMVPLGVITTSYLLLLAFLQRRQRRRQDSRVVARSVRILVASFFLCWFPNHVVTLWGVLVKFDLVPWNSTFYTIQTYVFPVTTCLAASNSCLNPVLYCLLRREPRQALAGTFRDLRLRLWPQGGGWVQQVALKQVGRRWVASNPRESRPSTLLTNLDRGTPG
UniProt Q8TDU9, whole entry K273A: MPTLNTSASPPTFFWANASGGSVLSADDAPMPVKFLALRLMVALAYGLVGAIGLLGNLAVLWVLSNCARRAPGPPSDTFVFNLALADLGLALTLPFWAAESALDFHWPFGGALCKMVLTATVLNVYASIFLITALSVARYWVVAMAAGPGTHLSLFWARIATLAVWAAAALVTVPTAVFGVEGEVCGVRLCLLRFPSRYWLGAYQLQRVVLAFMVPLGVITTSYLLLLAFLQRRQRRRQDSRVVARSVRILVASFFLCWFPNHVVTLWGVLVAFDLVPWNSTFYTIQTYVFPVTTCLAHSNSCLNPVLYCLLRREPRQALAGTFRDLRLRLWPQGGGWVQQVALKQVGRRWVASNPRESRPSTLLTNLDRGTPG
UniProt Q8TDU9, whole entry Q205H: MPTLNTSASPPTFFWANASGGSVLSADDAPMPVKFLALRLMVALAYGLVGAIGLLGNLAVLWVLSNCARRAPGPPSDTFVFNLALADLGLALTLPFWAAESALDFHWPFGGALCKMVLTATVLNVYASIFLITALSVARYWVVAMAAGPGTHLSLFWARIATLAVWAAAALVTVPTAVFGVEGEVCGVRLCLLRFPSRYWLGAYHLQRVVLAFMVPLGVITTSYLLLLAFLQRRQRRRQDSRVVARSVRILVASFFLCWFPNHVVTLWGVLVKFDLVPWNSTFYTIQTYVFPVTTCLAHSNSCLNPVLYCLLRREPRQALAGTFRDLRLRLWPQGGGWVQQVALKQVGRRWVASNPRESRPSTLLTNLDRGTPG
UniProt Q8TDU9, whole entry R194A: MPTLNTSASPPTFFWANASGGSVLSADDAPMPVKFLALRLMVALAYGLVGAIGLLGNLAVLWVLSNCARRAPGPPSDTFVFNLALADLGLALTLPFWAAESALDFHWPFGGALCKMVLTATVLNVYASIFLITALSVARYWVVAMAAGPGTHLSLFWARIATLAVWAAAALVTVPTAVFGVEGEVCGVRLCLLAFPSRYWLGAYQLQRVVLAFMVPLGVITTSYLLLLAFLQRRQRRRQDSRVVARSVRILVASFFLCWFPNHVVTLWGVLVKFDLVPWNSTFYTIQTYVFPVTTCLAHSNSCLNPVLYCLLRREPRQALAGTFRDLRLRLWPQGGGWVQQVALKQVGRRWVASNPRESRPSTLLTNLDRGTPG
UniProt Q8TDU9, whole entry R208K: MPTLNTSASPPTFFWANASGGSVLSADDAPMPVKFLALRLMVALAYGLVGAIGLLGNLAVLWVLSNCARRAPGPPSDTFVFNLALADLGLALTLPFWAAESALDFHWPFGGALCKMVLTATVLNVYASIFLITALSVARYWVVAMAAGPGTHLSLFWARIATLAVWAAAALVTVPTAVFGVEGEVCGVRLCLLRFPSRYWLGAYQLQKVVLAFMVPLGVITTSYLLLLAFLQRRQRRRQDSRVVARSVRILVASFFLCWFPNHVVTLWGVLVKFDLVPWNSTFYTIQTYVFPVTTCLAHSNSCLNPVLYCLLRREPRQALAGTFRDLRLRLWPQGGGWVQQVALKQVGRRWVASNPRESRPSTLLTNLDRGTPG
UniProt Q8TDU9, whole entry T295V: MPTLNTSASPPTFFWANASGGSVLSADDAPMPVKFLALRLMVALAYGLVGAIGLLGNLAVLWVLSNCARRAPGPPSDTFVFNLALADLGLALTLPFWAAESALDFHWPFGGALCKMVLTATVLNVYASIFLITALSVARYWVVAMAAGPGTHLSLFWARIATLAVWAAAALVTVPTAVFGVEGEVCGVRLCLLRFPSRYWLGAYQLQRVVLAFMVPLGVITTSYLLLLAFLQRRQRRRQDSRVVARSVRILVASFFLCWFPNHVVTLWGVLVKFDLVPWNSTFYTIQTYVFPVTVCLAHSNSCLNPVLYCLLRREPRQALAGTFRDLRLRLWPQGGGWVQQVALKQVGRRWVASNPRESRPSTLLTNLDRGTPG

In one assay the target is RXFP4 Q205H (Homo sapiens, UniProt Q8TDU9, Q205H). In words: cAMP accumulation, RXFP4 Q205H. The assay is classed as cell-based. As to conditions: HEK293T; mean ± S.E.M.
For another assay, the target named is RXFP4 L118S+V122S (Homo sapiens, UniProt Q8TDU9, L118S/V122S). Description: cAMP accumulation, RXFP4 L118S+V122S. The conditions noted are these: HEK293T. In kind it is cell-based. (Changes in cAMP serve as a functional read-out for many G protein-coupled receptors.)
The subject of the next assay is RXFP3 H268Q. Description: cAMP accumulation, RXFP3 H268Q. As to conditions: HEK293T, mean ± S.E.M. In kind it is cell-based, human.
The target of another assay is RXFP4 R208K (Homo sapiens, UniProt Q8TDU9, R208K). In words: cAMP accumulation, RXFP4 R208K. The assay is classed as cell-based. The conditions noted are these: HEK293T; mean ± S.E.M.
For another assay, the system named is RXFP3 K271R. Description: cAMP accumulation, RXFP3 K271R. In kind it is cell-based, human. As to conditions: HEK293T, mean ± S.E.M.
Another assay concerns the target RXFP4 WT (Homo sapiens, UniProt Q8TDU9). In words: cAMP accumulation, WT RXFP4 (HEK293T). The assay is classed as cell-based. As to conditions: […] forskolin, mean ± S.E.M.
The target in another assay is RXFP4 R194A (Homo sapiens, UniProt Q8TDU9, R194A). Description: cAMP accumulation, RXFP4 R194A. In kind it is cell-based. As to conditions: HEK293T; mean ± S.E.M.
Another assay addresses RXFP4 R208A (Homo sapiens, UniProt Q8TDU9, R208A). In words: cAMP accumulation, RXFP4 R208A. The assay is classed as cell-based. The conditions noted are these: HEK293T.
The test system of the next assay is RXFP3 and RXFP4. As to conditions: cited from earlier work.
In a further assay the target is RXFP4 T295V (Homo sapiens, UniProt Q8TDU9, T295V). In words: cAMP accumulation, RXFP4 T295V. The assay is classed as cell-based. The conditions noted are these: HEK293T; mean ± S.E.M.
In another assay the target is RXFP4 T121A (Homo sapiens, UniProt Q8TDU9, T121A). Description: cAMP accumulation, RXFP4 T121A. In kind it is cell-based. The conditions noted are these: HEK293T.
Another assay has as its target RXFP4 W97A (Homo sapiens, UniProt Q8TDU9, W97A). In words: cAMP accumulation, RXFP4 W97A. The assay is classed as cell-based. As to conditions: HEK293T.
The target of the next assay is RXFP4 F105A (Homo sapiens, UniProt Q8TDU9, F105A). In words: cAMP accumulation, RXFP4 F105A. The assay is classed as cell-based. The conditions noted are these: HEK293T; mean ± S.E.M.
For a further assay, the target named is RXFP4 H299A (Homo sapiens, UniProt Q8TDU9, H299A). In words: cAMP accumulation, RXFP4 H299A. In kind it is cell-based. The conditions noted are these: HEK293T.
The target in another assay is RXFP4 K273A (Homo sapiens, UniProt Q8TDU9, K273A). Description: cAMP accumulation, RXFP4 K273A. The conditions noted are these: HEK293T; mean ± S.E.M. The assay is classed as cell-based.

As to `CCc1cc(O)cc2c(/C=N/NC(=N)NCCc3ccc(Cl)cc3)c[nH]c12`, the Emax at RXFP4 Q205H was determined as 49.35 ± 7.02 % WT; on RXFP4 L118S+V122S (mean ± S.E.M.), 106.23 ± 4.75 % WT; with RXFP3 H268Q it was 92.52 ± 4.71 % WT; on RXFP4 R208K, 69.09 ± 4.02 % WT; in the assay on RXFP3 K271R, 70.86 ± 5.48 % WT; at RXFP4 WT it was 98.22 ± 3.01 % WT. The Emax at RXFP4 R194A is reported as 78.96 ± 8.75 % WT; at RXFP4 R208A (mean ± S.E.M.), 63.76 ± 4.94 % WT; on RXFP4 T295V it was 41.58 ± 2.93 % WT; on RXFP4 T121A (mean ± S.E.M.), 59.77 ± 8.29 % WT; at RXFP4 F105A, 60.11 ± 5.70 % WT; at RXFP4 K273A, 76.06 ± 6.54 % WT. Moreover, the “response” value at RXFP4 L118S+V122S was “without notable influence”. For the same molecule, the pEC50 in the assay on RXFP3 H268Q (4 μM forskolin, n = 3) amounted to 7.39 ± 0.11; in the assay on RXFP3 K271R (4 μM forskolin, n = 3) it was 7.21 ± 0.17. Also, the “decrease of potency vs WT” value is recorded as 6.6 fold on RXFP4 R208A and 20.1 fold on RXFP4 T121A. Also, the agonist type entry in the assay with RXFP3 and RXFP4 is given as “RXFP3/RXFP4 dual agonist”. Also, the “cAMP response” value at RXFP4 W97A and on RXFP4 H299A was “abolished cAMP responses” in each case.

Values taken from PMC9886975, “Ligand recognition mechanism of the human relaxin family peptide receptor 4 (RXFP4)” (Nature Communications, 2023).
